The target of this assay is 72 kDa type IV collagenase (Homo sapiens, UniProt P08253). The experiment in a line: Inhibition of MMP2 (unknown origin).

Sequences of proteins named here, by UniProt entry; tags and fusion partners are left off. A change or cut given only in a name is not applied to a line headed by its entry.
UniProt P08253: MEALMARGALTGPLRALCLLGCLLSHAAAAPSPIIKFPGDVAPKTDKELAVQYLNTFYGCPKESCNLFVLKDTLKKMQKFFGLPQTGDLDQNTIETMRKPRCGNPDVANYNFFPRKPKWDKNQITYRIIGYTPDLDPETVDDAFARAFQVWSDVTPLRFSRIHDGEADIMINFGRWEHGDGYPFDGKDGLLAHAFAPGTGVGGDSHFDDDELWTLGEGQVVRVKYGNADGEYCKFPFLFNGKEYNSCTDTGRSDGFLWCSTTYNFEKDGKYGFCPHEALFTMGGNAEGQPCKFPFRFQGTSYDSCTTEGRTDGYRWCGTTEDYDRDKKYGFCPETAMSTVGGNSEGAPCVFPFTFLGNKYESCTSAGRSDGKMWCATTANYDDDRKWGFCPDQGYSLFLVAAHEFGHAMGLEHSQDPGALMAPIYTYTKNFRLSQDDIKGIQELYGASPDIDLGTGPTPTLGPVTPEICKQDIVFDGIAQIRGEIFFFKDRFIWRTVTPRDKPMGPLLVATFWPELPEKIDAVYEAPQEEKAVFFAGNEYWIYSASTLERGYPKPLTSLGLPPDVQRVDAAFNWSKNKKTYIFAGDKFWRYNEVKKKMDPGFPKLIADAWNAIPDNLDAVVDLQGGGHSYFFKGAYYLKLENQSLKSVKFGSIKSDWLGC

As usually defined, the IC50 is the concentration at which inhibition is half-maximal.

Regarding `N=C(N)Nc1ccc(Oc2ccc(S(=O)(=O)CC3CS3)cc2)cc1` (stereo unspecified), the half-maximal inhibitory concentration (IC50) amounted to 21 nM.

For the origin of these results see ChEMBL document CHEMBL5241057, “Outline of gelatinase inhibitors as anti-cancer agents: A patent mini-review for 2010-present” (Eur J Med Chem, 2021).
